According to patent publication US20210047278A1, “E3 UBIQUITIN LIGASE AGONISTS, PHARMACEUTICAL COMPOSITIONS INCLUDING THE E3 UBIQUITIN LIGASE AGONISTS, RELATED METHODS OF USE” (FRED HUTCHINSON CANCER RESEARCH CENTER, priority 2018, published 2021):
Read-outs that look alike come from different tables or passages of the source.

Sequences of proteins named here, by UniProt entry; tags and fusion partners are left off. Residues count along the entry.
UniProt Q969H0, 64-707 R505L limits assumed: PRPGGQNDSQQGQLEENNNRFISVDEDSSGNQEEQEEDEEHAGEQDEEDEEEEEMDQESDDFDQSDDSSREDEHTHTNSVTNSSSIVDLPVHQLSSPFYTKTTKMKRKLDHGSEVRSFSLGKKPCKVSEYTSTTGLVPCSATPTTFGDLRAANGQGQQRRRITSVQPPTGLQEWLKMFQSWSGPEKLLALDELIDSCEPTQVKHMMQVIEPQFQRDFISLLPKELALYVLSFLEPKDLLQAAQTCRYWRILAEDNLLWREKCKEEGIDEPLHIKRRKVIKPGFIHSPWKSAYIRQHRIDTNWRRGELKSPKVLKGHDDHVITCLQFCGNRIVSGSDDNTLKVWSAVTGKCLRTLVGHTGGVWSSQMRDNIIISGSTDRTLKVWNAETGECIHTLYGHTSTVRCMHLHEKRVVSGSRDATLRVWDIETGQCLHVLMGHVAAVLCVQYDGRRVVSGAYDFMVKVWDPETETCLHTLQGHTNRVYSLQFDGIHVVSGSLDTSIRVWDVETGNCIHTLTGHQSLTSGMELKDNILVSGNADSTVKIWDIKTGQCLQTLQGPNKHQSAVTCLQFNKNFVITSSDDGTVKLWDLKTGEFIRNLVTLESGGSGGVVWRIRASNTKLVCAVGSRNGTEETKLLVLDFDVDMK
UniProt P63208, 2-163 partner limits assumed: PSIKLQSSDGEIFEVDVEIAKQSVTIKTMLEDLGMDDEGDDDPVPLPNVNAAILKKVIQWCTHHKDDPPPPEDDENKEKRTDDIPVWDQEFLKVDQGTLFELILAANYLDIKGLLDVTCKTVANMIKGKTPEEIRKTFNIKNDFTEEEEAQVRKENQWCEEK

Assays:
FBW7^ARG+pCycE = FBW7^ARG+pCycE (Homo sapiens, UniProt Q969H0, R505L); experiment: FBW7^ARG-cyclin E agonist ALPHAscreen (primary PRUN, confirmation CRUN1, dose-response DRUN); conditions: for FBW7 ACT Averaged Max % Response / EC50: DRUN dose-response; for FBW7 ACT Averaged Max % Response: relative to WT-FBW7+pCycE; for FBW7 ACT CRUN1 Avg % Response and Stdev: confirmation assay, single concentration 26.1 μM; for FBW7 ACT PRUN % Response: primary screen, 1536-well, 26.1 μM, FBW7^ARG + pCycE degron peptide, high control wt-FBW7+pCycE
FBW7^ARG (RLFBW7) alone = FBW7^ARG (RLFBW7) alone (Homo sapiens, UniProt Q969H0, R505L); experiment: Counterscreen 1 ALPHAscreen with FBW7^ARG alone (CSRUN1/DCSRUN1)
pCycE alone = experiment: Counterscreen 2 ALPHAscreen with cyclin E phosphopeptide alone (CSRUN2/DCSRUN2); conditions: for CyCEP ACT DCSRUN2 Averaged Max % Response: activation relative to WT-FBW7+pCycE, averaged maximum; for EC50: read-out: CyCEP ACT DCSRUN2 Final EC50, dose-response, triplicate, 10 point 3-fold dilutional series
[1] = read-out: FBW7 ACT EC50 Curve Fit Raw, Molar, raw curve fit
[2] = read-out: FBW7 ACT Final EC50, Molar, triplicate, 10 point 3-fold dilution, max approx. 87 μM
[3] = read-out: RLFBW7 ACT DCSRUN1 EC50 Curve Fit Raw, dose-response counterscreen, raw curve fit
[4] = read-out: RLFBW7 ACT DCSRUN1 Final EC50, dose-response counterscreen

How did the “FBW7 ACT Averaged Max % Response” value (FBW7^ARG+pCycE) turn out when `CCCCC(=O)OCCN1C(=O)c2cccc3c(N4CCOCC4)ccc(c23)C1=O` was run?
Its value is 21.12%.

And the “FBW7 ACT CRUN1 Avg % Response and Stdev” value (FBW7^ARG+pCycE; triplicate)?
Its value is 2.96 ± 0.51%.

What about the “FBW7 ACT PRUN % Response” value (FBW7^ARG+pCycE) of the same molecule?
The value was 3.44%.

What about the EC50 (FBW7^ARG+pCycE; [1]) of the same molecule?
Its EC50 is 14.8 µM.

And the EC50 (FBW7^ARG+pCycE; [2])?
The EC50 was > 62.6 µM.

And the “RLFBW7 ACT DCSRUN1 Averaged Max % Response” value (FBW7^ARG (RLFBW7) alone)?
Its value is 10.99%.

What about the EC50 (FBW7^ARG (RLFBW7) alone; [3]) of the same molecule?
The EC50 was 15.8 µM.

And the EC50 (FBW7^ARG (RLFBW7) alone; [4])?
Its EC50 is > 62.6 µM.

What about the “CyCEP ACT DCSRUN2 Averaged Max % Response” value (pCycE alone) of the same molecule?
Its value is 0.11%.

And the EC50 (pCycE alone)?
The EC50 was > 62.6 µM.

What does the source list for `CC(=O)Nc1cccc(-c2cnc(N3CCN(C(=O)c4ccco4)CC3)c3nccn23)c1`?
FBW7 ACT Averaged Max % Response (FBW7^ARG+pCycE): 14.24%; FBW7 ACT CRUN1 Avg % Response and Stdev (FBW7^ARG+pCycE; triplicate): 3.35 ± 0.18%; FBW7 ACT PRUN % Response (FBW7^ARG+pCycE): 3.23%; EC50 (FBW7^ARG+pCycE; [1]): 16.5 µM; EC50 (FBW7^ARG+pCycE; [2]): > 65.3 µM; RLFBW7 ACT DCSRUN1 Averaged Max % Response (FBW7^ARG (RLFBW7) alone): 1.06%; EC50 (FBW7^ARG (RLFBW7) alone; [3]): 0.0203 µM; EC50 (FBW7^ARG (RLFBW7) alone; [4]): > 65.3 µM; CyCEP ACT DCSRUN2 Averaged Max % Response (pCycE alone): 1.97%; EC50 (pCycE alone): > 65.3 µM

`O=C(c1ccco1)N1CCN(c2ncc(-c3ccc(CO)cc3)n3ccnc23)CC1` was tested. Which “FBW7 ACT Averaged Max % Response” value (FBW7^ARG+pCycE) did it give?
Its value is 20.66%.

And the “FBW7 ACT CRUN1 Avg % Response and Stdev” value (FBW7^ARG+pCycE; triplicate)?
Its value is 4.91 ± 0.57%.

And the “FBW7 ACT PRUN % Response” value (FBW7^ARG+pCycE)?
Its value is 4.77%.

And the EC50 (FBW7^ARG+pCycE; [1])?
Its EC50 is 71.5 µM.

What about the EC50 (FBW7^ARG+pCycE; [2]) of the same molecule?
Its EC50 is > 65.3 µM.

What about the “RLFBW7 ACT DCSRUN1 Averaged Max % Response” value (FBW7^ARG (RLFBW7) alone) of the same molecule?
The value was 0.65%.

And the EC50 (FBW7^ARG (RLFBW7) alone; [3])?
Its EC50 is 21.2 µM.

And the EC50 (FBW7^ARG (RLFBW7) alone; [4])?
Its EC50 is > 65.3 µM.

And the “CyCEP ACT DCSRUN2 Averaged Max % Response” value (pCycE alone)?
Its value is 1.13%.

And the EC50 (pCycE alone)?
Its EC50 is > 65.3 µM.

With `O=C(CC1C(=O)N(c2ccc(Cl)cc2)C(=S)N1CCc1ccc(Cl)cc1)Nc1ccc(F)cc1` (stereo not drawn) as the molecule, how does the “FBW7 ACT Averaged Max % Response” value (FBW7^ARG+pCycE) read?
Its value is 8.36%.

And the “FBW7 ACT CRUN1 Avg % Response and Stdev” value (FBW7^ARG+pCycE; triplicate)?
The value was 3.65 ± 0.87%.

What about the “FBW7 ACT PRUN % Response” value (FBW7^ARG+pCycE) of the same molecule?
The value was 2.03%.

And the EC50 (FBW7^ARG+pCycE; [1])?
Its EC50 is 0.0067 µM.

What about the EC50 (FBW7^ARG+pCycE; [2]) of the same molecule?
Its EC50 is > 49.7 µM.

What about the “RLFBW7 ACT DCSRUN1 Averaged Max % Response” value (FBW7^ARG (RLFBW7) alone) of the same molecule?
Its value is 1.01%.

What about the EC50 (FBW7^ARG (RLFBW7) alone; [4]) of the same molecule?
Its EC50 is > 49.7 µM.

And the “CyCEP ACT DCSRUN2 Averaged Max % Response” value (pCycE alone)?
The value was 2.05%.

And the EC50 (pCycE alone)?
The EC50 was > 49.7 µM.
